Experimental data taken from US20260382586A1, “DUAL INHIBITORS OF SIGMA-1 RECEPTOR AND SOLUBLE EPOXIDE HYDROLASE AND THEIR USE IN THE TREATMENT OF PAIN” (published 2026).

Chains of the proteins cited; added tags and fusions are not shown. Lines headed by an entry give the natural chain unless they say otherwise; changes in a name come on top.
UniProt P34913, whole entry: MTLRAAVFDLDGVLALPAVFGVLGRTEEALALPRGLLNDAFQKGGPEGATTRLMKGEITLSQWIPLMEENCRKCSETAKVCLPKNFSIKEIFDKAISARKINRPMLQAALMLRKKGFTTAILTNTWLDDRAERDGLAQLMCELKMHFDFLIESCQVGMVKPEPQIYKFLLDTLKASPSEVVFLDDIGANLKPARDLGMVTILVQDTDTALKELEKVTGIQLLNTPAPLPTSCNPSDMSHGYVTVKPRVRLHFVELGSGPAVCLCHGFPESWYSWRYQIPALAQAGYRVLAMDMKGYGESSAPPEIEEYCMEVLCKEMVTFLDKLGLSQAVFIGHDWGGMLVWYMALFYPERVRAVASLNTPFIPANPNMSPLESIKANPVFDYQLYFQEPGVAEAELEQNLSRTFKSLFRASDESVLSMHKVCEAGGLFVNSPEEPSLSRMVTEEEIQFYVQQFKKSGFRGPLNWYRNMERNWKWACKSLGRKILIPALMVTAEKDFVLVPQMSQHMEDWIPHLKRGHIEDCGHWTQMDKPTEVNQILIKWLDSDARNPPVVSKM
UniProt Q99720, whole entry: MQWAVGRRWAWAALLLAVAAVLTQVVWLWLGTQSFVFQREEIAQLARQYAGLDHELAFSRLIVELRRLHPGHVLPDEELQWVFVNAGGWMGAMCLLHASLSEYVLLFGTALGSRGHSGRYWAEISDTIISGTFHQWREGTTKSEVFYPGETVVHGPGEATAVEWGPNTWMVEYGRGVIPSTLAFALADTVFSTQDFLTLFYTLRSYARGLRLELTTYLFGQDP

Key:
recombinant human sEH = recombinant human sEH (Homo sapiens, UniProt P34913); test: Inhibition of sEH (fluorescent assay, CMNPC substrate); settings: for IC50: read-out: Inhibition sEH (IC50), human sEH, pH 7.4, 30 °C, [S]=5 μM; for sEH activity in words: summary of Table 1
human S1R = human S1R (Homo sapiens, UniProt Q99720); test: Binding to S1R ([3H]-(+)-pentazocine, transfected HEK-293 membranes); settings: for Ki: read-out: Binding S1R (Ki), human S1R, [3H]-(+)-pentazocine 5 nM, 37 °C, 120 min, pH 8

O=C(NCc1ccc(Cl)cc1Cl)C1CCN(Cc2ccc(F)cc2)CC1
IC50 (recombinant human sEH): 10 to 50 nM | Ki (human S1R): < 50 nM

N#Cc1ccc(CNC(=O)C2CCN(Cc3ccc(Cl)c(Cl)c3)CC2)c(C(F)(F)F)c1
IC50 (recombinant human sEH): < 10 nM | Ki (human S1R): 50 to 150 nM

O=C(NCc1ccc(Cl)cc1OC(F)(F)F)C1CCN(Cc2ccsc2)CC1
IC50 (recombinant human sEH): < 10 nM | Ki (human S1R): < 50 nM

N#Cc1ccc(CNC(=O)C2CCN(Cc3ccc4ccccc4c3)CC2)c(C(F)(F)F)c1
IC50 (recombinant human sEH): < 10 nM | Ki (human S1R): 50 to 150 nM

COc1cc(OC(F)(F)F)ccc1CNC(=O)C1CCN(Cc2ccccc2)CC1
IC50 (recombinant human sEH): 50 to 100 nM | Ki (human S1R): < 50 nM

N#Cc1ccc(CNC(=O)C2CCN(Cc3ccc(F)cc3)CC2)c(OC(F)(F)F)c1
IC50 (recombinant human sEH): < 10 nM | Ki (human S1R): < 50 nM

O=C(NCc1ccc(Br)cc1Cl)C1CCN(Cc2ccccc2)CC1
IC50 (recombinant human sEH): 10 to 50 nM | Ki (human S1R): 50 to 150 nM

O=C(NCc1ccc(Br)cc1OC(F)(F)F)C1CCN(Cc2ccsc2)CC1
IC50 (recombinant human sEH): < 10 nM | Ki (human S1R): < 50 nM

N#Cc1ccc(CNC(=O)C2CCN(Cc3ccco3)CC2)c(C(F)(F)F)c1
IC50 (recombinant human sEH): 10 to 50 nM | Ki (human S1R): 150 to 400 nM

O=C(NCc1ccc(Cl)cc1Cl)C1CCN(Cc2ccccc2)CC1
IC50 (recombinant human sEH): < 10 nM | Ki (human S1R): < 50 nM

N#Cc1ccc(CNC(=O)C2CCN(CCc3ccccc3)CC2)c(OC(F)(F)F)c1
IC50 (recombinant human sEH): 10 to 50 nM | Ki (human S1R): 50 to 150 nM

N#Cc1ccc(CNC(=O)C2CCN(Cc3ccccc3)CC2)c(OC(F)(F)F)c1
IC50 (recombinant human sEH): < 10 nM | Ki (human S1R): 50 to 150 nM

CC(=O)N1CCC(NC(=O)NC23CC4CC(CC(C4)C2)C3)CC1
Ki (human S1R): > 1000 nM | S1R binding in words (human S1R; summary of Table 1): no significant binding to S1R

N#Cc1ccc(CNC(=O)C2CCN(Cc3ccsc3)CC2)c(C(F)(F)F)c1
IC50 (recombinant human sEH): < 10 nM | Ki (human S1R): 50 to 150 nM

CN1CCN(CCc2ccc(Cl)c(Cl)c2)CC1
IC50 (recombinant human sEH): > 1000 nM | sEH activity in words (recombinant human sEH): inactive in sEH | Ki (human S1R): 50 to 150 nM

O=C(NCc1ccc(Br)cc1OC(F)(F)F)C1CCN(Cc2ccccc2)CC1
IC50 (recombinant human sEH): < 10 nM | Ki (human S1R): < 50 nM

N#Cc1ccc(CNC(=O)C2CCN(Cc3ccsc3)CC2)c(OC(F)(F)F)c1
IC50 (recombinant human sEH): < 10 nM | Ki (human S1R): < 50 nM

O=C(NCc1ccc(Cl)cc1Cl)C1CCN(Cc2ccc(Cl)c(Cl)c2)CC1
IC50 (recombinant human sEH): < 10 nM | Ki (human S1R): 50 to 150 nM

COc1ccc(CNC(=O)C2CCN(Cc3ccccc3)CC2)c(Cl)c1
IC50 (recombinant human sEH): 10 to 50 nM | Ki (human S1R): 150 to 400 nM

O=C(NCc1ccc(Cl)cc1C(F)(F)F)C1CCN(Cc2ccccc2)CC1
IC50 (recombinant human sEH): < 10 nM | Ki (human S1R): < 50 nM

O=C(NCc1ccc(Cl)cc1Cl)C1CCN(c2ncccn2)CC1
IC50 (recombinant human sEH): 10 to 50 nM | Ki (human S1R): > 1000 nM

O=C(NCc1ccc(F)cc1C(F)(F)F)C1CCN(Cc2ccccc2)CC1
IC50 (recombinant human sEH): < 10 nM | Ki (human S1R): < 50 nM

Cc1ccc(CN2CCC(C(=O)NCc3ccc(Cl)cc3Cl)CC2)cc1
IC50 (recombinant human sEH): 10 to 50 nM | Ki (human S1R): < 50 nM

O=C(NCc1cccc(C(F)(F)F)c1Cl)C1CCN(Cc2ccccc2)CC1
IC50 (recombinant human sEH): 10 to 50 nM | Ki (human S1R): < 50 nM

N#Cc1ccc(CNC(=O)C2CCN(Cc3cccc(Cl)c3)CC2)c(C(F)(F)F)c1
IC50 (recombinant human sEH): < 10 nM | Ki (human S1R): 150 to 400 nM

O=C(NCc1ccc(Cl)cc1OC(F)(F)F)C1CCN(Cc2ccc(F)cc2)CC1
IC50 (recombinant human sEH): < 10 nM | Ki (human S1R): < 50 nM

O=C(NCc1cc(Cl)cc(Cl)c1Cl)C1CCN(Cc2ccccc2)CC1
IC50 (recombinant human sEH): 50 to 100 nM | Ki (human S1R): < 50 nM

O=C(NCc1ccc(S(F)(F)(F)(F)F)cc1F)C1CCN(Cc2ccccc2)CC1
IC50 (recombinant human sEH): 50 to 100 nM | Ki (human S1R): 50 to 150 nM

O=C(NCc1ccc(Br)cc1C(F)(F)F)C1CCN(Cc2ccsc2)CC1
IC50 (recombinant human sEH): < 10 nM | Ki (human S1R): < 50 nM

Cc1cc(OCCN2CCOCC2)nn1-c1ccc2ccccc2c1
IC50 (recombinant human sEH): > 1000 nM | sEH activity in words (recombinant human sEH): inactive in sEH

O=C(NCc1cccc(Cl)c1Cl)C1CCN(Cc2ccccc2)CC1
IC50 (recombinant human sEH): < 10 nM | Ki (human S1R): < 50 nM

CCCN(CCC)CCc1ccc(OC)c(OCCc2ccccc2)c1
IC50 (recombinant human sEH): > 1000 nM | sEH activity in words (recombinant human sEH): inactive in sEH

O=C(NCc1ccc(Br)cc1OC(F)(F)F)C1CCN(CCc2ccccc2)CC1
IC50 (recombinant human sEH): < 10 nM | Ki (human S1R): < 50 nM

O=C(NCc1ccc(F)cc1C(F)(F)F)C1CCN(Cc2ccc(I)cc2)CC1
IC50 (recombinant human sEH): < 10 nM | Ki (human S1R): < 50 nM

N#Cc1ccc(CNC(=O)C2CCN(Cc3ccccc3F)CC2)c(C(F)(F)F)c1
IC50 (recombinant human sEH): < 10 nM | Ki (human S1R): 50 to 150 nM

O=C(NCc1ccc(F)cc1C(F)(F)F)C1CCN(Cc2ccsc2)CC1
IC50 (recombinant human sEH): 10 to 50 nM | Ki (human S1R): < 50 nM

COc1ccc(CN2CCC(C(=O)NCc3ccc(Cl)cc3Cl)CC2)cc1
IC50 (recombinant human sEH): < 10 nM | Ki (human S1R): < 50 nM

N#Cc1ccc(CNC(=O)C2CCN(Cc3ccc(C(F)(F)F)cc3)CC2)c(C(F)(F)F)c1
IC50 (recombinant human sEH): < 10 nM | Ki (human S1R): 50 to 150 nM

COc1ccc(CN2CCC(C(=O)NCc3ccc(Cl)cc3OC(F)(F)F)CC2)cc1
IC50 (recombinant human sEH): < 10 nM | Ki (human S1R): < 50 nM

Cc1cccc(CN2CCC(C(=O)NCc3ccc(C#N)cc3C(F)(F)F)CC2)c1
IC50 (recombinant human sEH): < 10 nM | Ki (human S1R): 150 to 400 nM

O=C(OCCN1CCOCC1)C1(c2ccccc2)CCCCC1
IC50 (recombinant human sEH): > 1000 nM | sEH activity in words (recombinant human sEH): inactive in sEH
